Experiments:
Pseudomonas aeruginosa [1] = details: M1251
Pseudomonas aeruginosa [2] = details: 2779-con
Pseudomonas aeruginosa [3] = details: isolate 13120

Measured: MIC

GENTAMICIN
0.5 µg/mL: Pseudomonas aeruginosa [1] | Pseudomonas aeruginosa [2] | Pseudomonas aeruginosa [3]

Source: ChEMBL document CHEMBL1255447, “Efflux pumps, OprD porin, AmpC beta-lactamase, and multiresistance in Pseudomonas aeruginosa isolates from cystic fibrosis patients” (2010)
